Apparent affinities of Ab-95 variants for a coronavirus HR2 peptide

Data: MIT Lincoln Laboratory AlphaSeq set, Engelhart et al. 2022, doi:10.1038/s41597-022-01779-4, as distributed in FLAb.

Antigen: PDVDLGDISGINAS, a 14-residue peptide of the SARS-CoV-2 spike HR2 region.

Ab-95 is the parent antibody, in scFv form: VH, then the linker GGGGSGGGGSGGGGS, then VL. The heavy chain is unchanged in all variants.
VH: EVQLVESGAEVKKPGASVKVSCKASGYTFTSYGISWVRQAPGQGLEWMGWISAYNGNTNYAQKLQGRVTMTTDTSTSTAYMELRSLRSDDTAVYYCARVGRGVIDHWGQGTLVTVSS
VL: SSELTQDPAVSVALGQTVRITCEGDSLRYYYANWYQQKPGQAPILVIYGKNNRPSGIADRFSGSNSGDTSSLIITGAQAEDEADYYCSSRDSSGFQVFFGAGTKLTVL

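The starting antibody came from a phage panning campaign against this peptide. In library AAYL52, one, two or three CDR residues were substituted; doubles and triples were drawn at random. AlphaSeq pools MATa yeast showing the antibodies with MATalpha yeast showing the peptide. Binding brings cells together so that they mate, and sequencing counts the barcode pairs among the diploids. Read counts were normalised to the haploid input and turned into Kd by a linear fit to BCL2-family pairs of known affinity, for each replicate. There are three technical replicates.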

Substitutions are numbered in sequence along the VL above, starting at 1 (not Kabat). Values are apparent Kd, the geometric mean of the replicates that gave a signal; lower means stronger binding. An entry "nd" has no value in the source: the pair was not observed among the diploids in any replicate. This suggests poor binding but is not conclusive.

| # | Kd | replicates with signal | changes |
|---|---|---|---|
| 1 | 4.4 nM | 3 of 3 | Y31Q+K50T+S55E |
| 2 | 2.2 µM | 2 of 3 | Y31T+N52P+F98A |
| 3 | 1.6 µM | 1 of 3 | S89I+V97F |
| 4 | 340 nM | 3 of 3 | R28N+Y29F+F95M |
| 5 | 2.1 µM | 2 of 3 | R28S+A32I+Q96F |
| 6 | 3.6 µM | 2 of 3 | G24A+Y29I+F95D |
| 7 | nd | 0 of 3 | N33V+K50I+S89P |
| 8 | 38 µM | 1 of 3 | R28I+N52C+G94T |
| 9 | 1.6 µM | 2 of 3 | Y29A+A32S+N33S |
| 10 | 4.1 µM | 3 of 3 | R28W+G49P |
| 11 | 550 nM | 3 of 3 | K50Q+S89C+D91E |
| 12 | 1.1 µM | 3 of 3 | G49N+R53C+S55I |
| 13 | 620 nM | 3 of 3 | N52T+S55A+S93V |
| 14 | 38 µM | 3 of 3 | R28V+A32S+F98T |
| 15 | 590 µM | 2 of 3 | G49I+R53N+S93W |
| 16 | 7.4 µM | 1 of 3 | A32L+G49E+S89A |
| 17 | nd | 0 of 3 | K50F+S93P+G94N |
| 18 | 9.2 µM | 1 of 3 | L27Y+Y29M+F95W |
| 19 | 20 nM | 3 of 3 | D25G+Y30N+S93I |
| 20 | 41 nM | 3 of 3 | E23K+D91S |
| 21 | 110 nM | 3 of 3 | E23S+S26G+S89W |
| 22 | 3.2 µM | 3 of 3 | R28I+S55Y+F98H |
| 23 | 470 nM | 3 of 3 | S88V+G94E+Q96S |
| 24 | 1.8 µM | 1 of 3 | Y31T+G49T+Q96L |
| 25 | 31 µM | 1 of 3 | A32P+P54I+D91I |
| 26 | 2.6 µM | 2 of 3 | D25M+R28F+Y29L |
| 27 | 230 nM | 3 of 3 | Y31M+S93W+F98V |
| 28 | 3.5 µM | 3 of 3 | R28E+N51E+S55W |
| 29 | 31 µM | 2 of 3 | E23L+G24V+N51C |
| 30 | nd | 0 of 3 | G24N+S89T+D91W |
| 31 | 2.9 µM | 2 of 3 | G49D+S55M+D91Y |
| 32 | 1.9 µM | 3 of 3 | S88F+S89C |
| 33 | 3.9 µM | 2 of 3 | S26F+S55R |
| 34 | nd | 0 of 3 | N33W+R53C |
| 35 | 19 µM | 2 of 3 | L27R+S88T+R90F |
| 36 | 670 nM | 2 of 3 | S26C+R28T+F98A |
| 37 | nd | 0 of 3 | S93F+F95Y+V97G |
| 38 | 6.8 µM | 2 of 3 | L27R+K50C+F95N |
| 39 | 230 nM | 3 of 3 | Y30K+G94F+F98I |
| 40 | 35 µM | 2 of 3 | N33Q+G49K+S89V |
| 41 | 50 µM | 1 of 3 | D25Q+N51M+S92C |
| 42 | 6.4 µM | 3 of 3 | E23K+G24I+D25Q |
| 43 | 13 µM | 1 of 3 | A32I+N33W+D91S |
| 44 | 7.5 µM | 1 of 3 | Y29A+S92L+G94P |
| 45 | 1.2 µM | 3 of 3 | R28W+S92R+G94Q |
| 46 | 550 nM | 3 of 3 | E23H+S55I+S89T |
| 47 | 180 nM | 3 of 3 | Y30S+S89N+V97H |
| 48 | 2.0 µM | 3 of 3 | Y31V+S88L+F95M |
| 49 | 5.8 µM | 2 of 3 | R53P+S55F+S88M |
| 50 | 950 nM | 3 of 3 | E23M+K50M+S55F |
| 51 | 39 nM | 3 of 3 | Y31N+N51M |
| 52 | 2.5 µM | 2 of 3 | G24C+R90A+G94Q |
| 53 | 2.3 µM | 2 of 3 | N33Q+V97R |
| 54 | 8.8 µM | 1 of 3 | Y29T+D91T+G94W |
| 55 | nd | 0 of 3 | R28C+G49F+Q96N |
| 56 | 320 nM | 3 of 3 | E23M+Y31H+F98E |
| 57 | 5.2 µM | 3 of 3 | G24F+Y29T+F98K |
| 58 | 300 nM | 2 of 3 | S93A+G94Q+F98C |
| 59 | 830 nM | 1 of 3 | S26E+N33M |
| 60 | 140 nM | 3 of 3 | K50E+S92N+F98W |
| 61 | 11 µM | 3 of 3 | E23W+K50R+Q96R |
| 62 | 110 nM | 3 of 3 | E23T+V97I+F98L |
| 63 | 5.2 µM | 2 of 3 | L27W+R28T+A32T |
| 64 | 1.1 µM | 3 of 3 | G24S+P54N+Q96R |
| 65 | 15 nM | 3 of 3 | R28L+N33C+S88A |
| 66 | 530 nM | 3 of 3 | Y31W+K50N+F95H |
| 67 | 62 µM | 2 of 3 | N33Y+N52G+Q96M |
| 68 | 20 µM | 3 of 3 | G24Q+K50Q+S93E |
| 69 | 2.1 µM | 2 of 3 | E23A+D91I+S92M |
| 70 | 3.3 µM | 2 of 3 | D25A+N33K+K50C |

11 of these entries, quoted again:

| changes | Kd | replicates with signal |
|---|---|---|
| Y29T+D91T+G94W | 8.8 µM | 1 of 3 |
| D25M+R28F+Y29L | 2.6 µM | 2 of 3 |
| S88V+G94E+Q96S | 470 nM | 3 of 3 |
| E23H+S55I+S89T | 550 nM | 3 of 3 |
| Y29A+A32S+N33S | 1.6 µM | 2 of 3 |
| Y31Q+K50T+S55E | 4.4 nM | 3 of 3 |
| S88F+S89C | 1.9 µM | 3 of 3 |
| S93A+G94Q+F98C | 300 nM | 2 of 3 |
| G49N+R53C+S55I | 1.1 µM | 3 of 3 |
| E23K+G24I+D25Q | 6.4 µM | 3 of 3 |
| E23S+S26G+S89W | 110 nM | 3 of 3 |

Empty control strains, which show no peptide, gave a signal in 28% of pairings with library AAYL52; the median was 8.2 µM and 95% of these signals were weaker than 800 nM. No background was subtracted. Parent in this assay: reference entry 200 nM, copy in this library 180 nM.